## AlphaSeq binding of Ab-95 light chain variants to a spike HR2 peptide

Reference: Engelhart et al. 2022, doi:10.1038/s41597-022-01779-4. File: FLAb, binding data.

Target: peptide PDVDLGDISGINAS, taken from heptad repeat 2 (HR2) of SARS-CoV-2 spike.

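Phage display of a naive human antibody library on the peptide gave the parent. Variants in AAYL52 differ from the parent at up to three CDR positions; double and triple changes were sampled at random. The scFvs were displayed on barcoded MATa yeast, the peptide on MATalpha yeast. Pairs that bind mate more often; barcode pairs of the diploids are counted by sequencing. Scores were corrected for input abundance and mapped to Kd with protein pairs of known affinity run in the same pool. Mating was done three times.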

Ab-95 is the parent antibody, in scFv form: VH, then a (GGGGS)3 linker, then VL. The heavy chain is unchanged in all variants.
VH: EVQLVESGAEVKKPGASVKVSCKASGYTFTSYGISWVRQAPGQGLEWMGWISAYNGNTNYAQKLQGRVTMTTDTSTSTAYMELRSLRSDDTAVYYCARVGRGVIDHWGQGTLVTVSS
VL: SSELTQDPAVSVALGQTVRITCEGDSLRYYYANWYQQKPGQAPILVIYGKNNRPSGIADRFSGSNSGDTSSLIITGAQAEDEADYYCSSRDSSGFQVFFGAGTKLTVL

Each variant is given by its three light chain CDRs, as the data file delimits them; those of the parent are EGDSLRYYYAN, GKNNRPS, SSRDSSGFQVF.
The read-out is the apparent dissociation constant on a log10 scale (nM): the lower, the stronger.
The mean shown is taken over the replicates in which the pair was detected.
An entry "ND" has no value in the source: the pair was not observed among the diploids in that replicate. This suggests poor binding but is not conclusive.
In this assay the parent's reference entry averaged 2.31; its copy inside this library read 2.25.
Empty control strains, which show no peptide, gave a signal in 28% of pairings with library AAYL52; the median was 3.91 and 95% of these signals were weaker than 2.90. No background was subtracted. Also given: how often the same scFv was detected with the empty control strains, with their mean in brackets.

| CDR-L1 | CDR-L2 | CDR-L3 | replicates, log10 nM | mean log10 Kd (nM) | empty controls |
|---|---|---|---|---|---|
| EGDSLRMYYAS | GKNNRPS | SSRDSSGFQWF | 4.29 3.64 4.13 | 4.02 | 6/9 (3.95) |
| EGDSLRYYYAN | GKNNRPE | SSRDFSGFRVF | 2.82 2.81 2.04 | 2.56 | 1/9 (4.51) |
| EGDSLRYYYAN | GKNNRPS | SSRDSIGFQSF | ND ND ND | ND | 2/9 (3.79) |
| EGDSHRYYCAN | GKNNRPS | SSRDSSGFQWF | 4.77 3.70 3.63 | 4.03 | 3/9 (4.14) |
| EGDSLRGYYAN | GKNNRPP | SSRDSSGFQYF | 2.10 2.45 1.96 | 2.17 | 4/9 (3.89) |
| EGDSLVYYYAN | GKPNRPS | SSRDSSGFQVF | ND ND ND | ND | 1/9 (2.81) |
| EGDSLRYYYAN | GKNNRMS | VSRDSSGFQVF | 3.64 3.38 2.88 | 3.30 | 4/9 (4.13) |
| EGDSPRYQYAN | GPNNRPS | SSRDSSGFQVF | 2.55 3.56 2.27 | 2.79 | 1/9 (3.57) |
| EGDSLRYYYAN | GKNRRPS | SSRDGSGWQVF | ND ND ND | ND | 1/9 (2.52) |
| EGDSSVYYYAN | GKNNRPS | SSGDSSGFQVF | ND 4.60 ND | 4.60 | 2/9 (3.80) |
| EGDSLKYYYAN | GKNNRPS | SSNDSSGFQVF | 2.79 2.53 2.57 | 2.63 | 7/9 (3.70) |
| EGDSLRYYYAA | GKNNEPS | SSRDRSGFQVF | 4.77 ND 3.92 | 4.34 | 2/9 (4.08) |
| EGDSLRYYYAN | GKNARPS | SWRDSSGNQVF | 4.02 4.24 3.74 | 4.00 | 7/9 (3.72) |
| EGDSLNYYYAN | GKNNTPS | SGRDSSGFQVF | 2.99 3.24 ND | 3.12 | 0/9 |
| EGDSLRYYYAN | GKNLRPS | SSDDSSGFQVF | ND 3.30 ND | 3.30 | 1/9 (4.17) |
| EGDSLRYYYAN | GTNNRPS | SSRDSSGFQCQ | 3.30 4.07 ND | 3.69 | 4/9 (4.45) |
| EGDSLRMYYAN | GKNNRPS | SSMASSGFQVF | 3.19 ND 3.71 | 3.45 | 2/9 (3.26) |
| EGDSLRYYPAN | GKNNRPC | SSRDSAGFQVF | 1.95 1.93 1.53 | 1.80 | 5/9 (4.65) |
| EGDSLRYYYAN | GKNNRPS | SNRMSSGFQVF | ND ND ND | ND | 1/9 (3.90) |
| EGDSMRYYYAN | GKGNRPS | SSRYSSGFQVF | 4.71 3.06 3.32 | 3.70 | 1/9 (4.26) |
| EGDSLRSYYAN | GKNNRPS | DSRDSSGWQVF | 2.41 3.15 3.48 | 3.01 | 2/9 (4.13) |
| EGDSLRYYYAN | LKNNRPS | SSADSSGEQVF | 3.74 2.80 ND | 3.27 | 2/9 (4.60) |
| EGDSRRYYYAN | GGNNRQS | SSRDSSGFQVF | 3.04 3.91 2.87 | 3.28 | 0/9 |
| EGDSLQYYYAN | GKNNRPN | SSRDASGFQVF | 1.86 1.62 1.49 | 1.66 | 2/9 (4.33) |
| EGDSLRYPYAN | GKNNRPS | SGRDSSGFQVC | 3.56 ND 3.99 | 3.78 | 3/9 (3.48) |
| EGDSLRYDYAN | GKENRPS | CSRDSSGFQVF | 2.74 2.45 1.94 | 2.38 | 2/9 (3.88) |
| EGDSLRYYYAN | GKPRRPS | SSRDSSGFQVF | 4.35 4.92 4.58 | 4.62 | 4/9 (4.13) |
| EGDSLRLYYAN | GKNNRPS | SSRDSSGFQVF | 3.16 2.48 2.61 | 2.75 | 6/9 (4.09) |
| IGDSLRYYYAN | GKNNGCS | SSRDSSGFQVF | 5.31 ND ND | 5.31 | 5/9 (3.91) |
| ECMSLRYYYAN | GKNNRPS | SSRDSSGFQVF | 2.48 2.49 1.64 | 2.20 | 4/9 (4.32) |
| EGDSLRYYYAN | GKNNRAL | SSRNSSGFQVF | 2.98 3.61 3.71 | 3.43 | 1/9 (3.46) |
| EGDSLRYYYAN | GKNNRPS | SSRDSSMCFVF | ND ND 2.54 | 2.54 | 1/9 (3.97) |
| EGDSLRYYYAN | GKCNRVS | SSRDSSYFQVF | 5.41 3.23 ND | 4.32 | 6/9 (3.92) |

Again, the first 4 entries without any signal:

CDR-L1,CDR-L2,CDR-L3,"replicates, log10 nM",mean log10 Kd (nM),empty controls
EGDSLRYYYAN,GKNNRPS,SSRDSIGFQSF,ND ND ND,ND,2/9 (3.79)
EGDSLVYYYAN,GKPNRPS,SSRDSSGFQVF,ND ND ND,ND,1/9 (2.81)
EGDSLRYYYAN,GKNRRPS,SSRDGSGWQVF,ND ND ND,ND,1/9 (2.52)
EGDSLRYYYAN,GKNNRPS,SNRMSSGFQVF,ND ND ND,ND,1/9 (3.90)